The target in assay [1] is PEG-3 (UniProt Q6IN02). Nature of the assay: inhibition of PEG-3 promoter-driven reporter – cell-based, HeLa, luciferase, CREF/GAPDH counter-screen panel, dose response (AID 624167). The following applies: HeLa PEG-Prom luciferase reporter, overnight, CREF/GAPDH counter-screens, mean of runs. On the technique in general: A counterscreen serves to expose hits that act by an unwanted route or on another target.

Amino acid sequences for entries named in this document (tags omitted).
UniProt Q6IN02, whole entry, looked up: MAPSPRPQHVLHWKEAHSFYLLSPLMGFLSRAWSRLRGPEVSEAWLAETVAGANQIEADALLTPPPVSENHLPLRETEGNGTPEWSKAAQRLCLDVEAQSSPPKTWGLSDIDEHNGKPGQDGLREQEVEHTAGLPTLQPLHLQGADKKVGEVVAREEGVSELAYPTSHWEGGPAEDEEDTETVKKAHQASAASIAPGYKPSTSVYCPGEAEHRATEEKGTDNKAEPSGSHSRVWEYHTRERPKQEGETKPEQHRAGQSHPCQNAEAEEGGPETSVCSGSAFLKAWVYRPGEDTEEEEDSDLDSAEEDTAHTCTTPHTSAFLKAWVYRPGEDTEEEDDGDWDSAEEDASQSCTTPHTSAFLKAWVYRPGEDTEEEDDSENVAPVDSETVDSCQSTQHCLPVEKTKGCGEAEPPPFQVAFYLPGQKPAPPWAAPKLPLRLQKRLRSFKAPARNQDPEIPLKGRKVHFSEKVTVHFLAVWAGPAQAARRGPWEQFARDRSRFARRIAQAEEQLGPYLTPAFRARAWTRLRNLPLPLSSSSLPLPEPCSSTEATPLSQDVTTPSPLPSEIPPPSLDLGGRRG

Assay [2] concerns PEG-3. Described as above. Particulars: HeLa PEG-Prom luciferase reporter, overnight, CREF/GAPDH counter-screens. For orientation: Reporter assays use an easily measured gene product as a stand-in for the process of interest.
The mark [3] stands for this setting: run 1, dose range 1, individual replicate IC50 per panel.
The mark [4] stands for this setting: run 2, dose range 1, individual replicate IC50 per panel.

Active and inactive are the calls of the source.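 Rule for the calls: active = mean IC50 for reducing PEG3 promoter reporter signal at or below a set limit, with IC50 above the limit in both counter screens; inactive = the rest, including counter screen hits.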 Some results are limits rather than exact numbers.

Our source for the IC50 values is PubChem BioAssay AID624167 (Sanford-Burnham Center for Chemical Genomics, 2012).

One may read the IC50 as the midpoint of a concentration-inhibition curve.

Consider `O=c1[nH]c2ccccc2n1C1CCN(C(c2cccc3ccccc23)c2nnnn2C2CCCC2)CC1` (stereo unspecified), for which the IC50 on PEG-3 [1] was inactive: > 100 µM; in the assay on PEG-3 [2] (setting [3]), more than 100 µM; in the assay with PEG-3 [2] (setting [4]), more than 100 µM.
Turning to `CCCCn1nnnc1C(c1cccs1)N1CCC(n2c(=O)[nH]c3ccccc32)CC1` (stereo unspecified), the IC50 result at PEG-3 [1] was “inactive”. Further, the half-maximal inhibitory concentration (IC50) with PEG-3 [2] (setting [3]) was 27.3 µM; in the assay on PEG-3 [2] (setting [4]), 94.5 µM.
